Data on one substance can be found in patent publication US12005094B2, “Inhibitor of inflammatory conditions” (Compton Developments Ltd., priority 2009, dated 2024).

This assay deals with MMP9. Briefly: TNFα-induced MMP9 in HaCaT keratinocytes, gelatinase zymography (in vitro psoriasis model). Type of assay: cell-based, human. The note with it: substance alone (BFE or Anti-TNFα mAb 10 ug/ml; TNFα 5 ng/ml), 72 hours. An excerpt: For the in vitro psoriasis model, this study used the HaCaT human keratinocyte cell line, which was obtained from ATCC/LGC standard (Teddington, Middlesex, UK). Cells were routinely cultured with Dubecco's modified Eagle medium (DMEM) supplemented with 10% foetal bovine serum, penicillin and streptomycin (Thermo Fisher Scientific, Paisley, UK). HaCaT cells were passaged for less than 2 months before fresh cells were resuscitated from earlier cryogenically preserved stocks. HaCaT cells were treated in the following conditions in triplicate. Recombinant human tumour necrosis factor alpha was obtained from PeproTech (PeproTech house, London, UK) and was used at a final concentration of 5 ng/ml throughout the study unless otherwise stated.
Boswellia frereana gum resin was purchased from Hargeisa, Somaliland, and successfully extracted as described previously. […] The constituents of BFE were then analysed and verified through GC-MS. […]
Treatments groups were added in triplicate/group (composed of the following: 1) Control (media only); 2) BFE [10 ug/ml]; 3) Anti-TNFα mAb [10 ug/ml]; 4) TNFα [5 ng/ml]; 5) TNFα [5 ng/ml]+BFE [10 ug/ml]; and 6) TNFα [5 ng/ml]+Anti-TNFα mAb [10 ug/ml]) and incubated for 72 hours. […] MMP9 protein levels was assessed and quantified using Image J analysis software and densitometry evaluation.

Turning to “TNFα: Recombinant human tumour necrosis factor alpha, inflammatory stimulus at 5 ng/ml”, the “MMP9 Densitometry Value” worked out at 48778.8 and the “MMP9 Normalised values” is listed as 38.0 densitometry units/ug total protein.
